From US6956113B2 (priority 2000, dated 2005)

Tests used:
[1] = system: Salmonella strain TA 1535 carrying pBRTNluxAM or pBRTNluxAMmuc631; experiment: Bioluminescent β-lactamase (β-lac) reverse mutagenicity assay
[2] = system: bioluminescent Salmonella tester strains (his- cells); experiment: High throughput (pre-incubation) bioluminescent "Ames" mutagenicity assay; conditions: luminescent microcolonies, treated versus untreated wells

N-methyl-N′-nitro-nitrosoguanidine
mutagenic activity in bioluminescent β-lactamase assay ([1]; luminescent microcolonies, treated versus untreated wells, FIG. 8): detection of mutagenic activity | ability of the strain to detect mutagens (reversion to ampicillin resistance) ([1]; strain SApBRTNluxAM): ability of this strain to detect mutagens was confirmed | bioluminescent revertants after treatment (mutagenicity) ([2]; FIG. 4): detection of bioluminescent revertants | bioluminescent revertants after independent exposure (mutagenicity) ([2]; FIG. 5): detection of bioluminescent revertants
